# Values of other authors, collected in paper PMC8518066, “Efficient Entropy‐Driven Inhibition of Dipeptidyl Peptidase III by Hydroxyethylene Transition‐State Peptidomimetics” (Chemistry (Weinheim an Der Bergstrasse, Germany), 2021).
# Settings: 37 °C; cited from earlier work
substance,measurement,value
tynorphin [reference compound],time to complete degradation in human serum,≤ 4 h
